Experimental data published in ChEMBL document CHEMBL1143442, “Inhibitors of the tyrosine kinase EphB4. Part 2: structure-based discovery and optimisation of 3,5-bis substituted anilinopyrimidines” (Bioorg Med Chem Lett, 2008).

How the values were obtained:
Ephrin type-B receptor 4 [1] = target: T1, Ephrin type-B receptor 4 (Homo sapiens, UniProt P54760); experiment: Inhibition of EphB4
T1 sequence (P54760 whole entry): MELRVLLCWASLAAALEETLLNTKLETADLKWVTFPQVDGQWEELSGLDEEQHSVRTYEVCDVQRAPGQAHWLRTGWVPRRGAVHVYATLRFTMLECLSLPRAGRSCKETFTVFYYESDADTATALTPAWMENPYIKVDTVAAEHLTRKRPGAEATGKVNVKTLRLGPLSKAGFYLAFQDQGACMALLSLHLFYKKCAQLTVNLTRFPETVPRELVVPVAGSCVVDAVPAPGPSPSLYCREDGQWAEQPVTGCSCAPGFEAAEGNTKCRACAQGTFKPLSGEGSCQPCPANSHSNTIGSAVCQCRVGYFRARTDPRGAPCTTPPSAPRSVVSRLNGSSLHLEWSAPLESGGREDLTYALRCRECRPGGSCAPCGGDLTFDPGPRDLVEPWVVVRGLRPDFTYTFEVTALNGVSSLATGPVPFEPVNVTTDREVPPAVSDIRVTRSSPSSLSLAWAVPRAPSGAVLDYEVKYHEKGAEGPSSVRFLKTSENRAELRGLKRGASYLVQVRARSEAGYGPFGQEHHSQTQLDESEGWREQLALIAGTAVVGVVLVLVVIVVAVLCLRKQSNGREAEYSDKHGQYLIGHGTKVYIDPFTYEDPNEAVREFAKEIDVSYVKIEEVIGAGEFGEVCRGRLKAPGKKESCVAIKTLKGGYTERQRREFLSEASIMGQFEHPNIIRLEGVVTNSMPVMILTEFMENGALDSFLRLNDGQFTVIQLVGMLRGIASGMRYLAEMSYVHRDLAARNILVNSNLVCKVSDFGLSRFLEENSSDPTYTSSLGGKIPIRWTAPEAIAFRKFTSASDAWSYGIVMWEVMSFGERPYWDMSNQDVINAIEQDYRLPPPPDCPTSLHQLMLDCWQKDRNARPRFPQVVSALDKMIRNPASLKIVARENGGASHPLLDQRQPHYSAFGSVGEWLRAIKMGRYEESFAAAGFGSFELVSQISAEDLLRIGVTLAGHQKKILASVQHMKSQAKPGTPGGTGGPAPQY

Ephrin type-B receptor 4 [2] = target: T1, Ephrin type-B receptor 4; experiment: Inhibition of Myc-His-tagged EphB4 expressed in CHOK1 cells assessed as phosphorylation by ELISA; type: cell-based, CHO-K1

IC50 (Ephrin type-B receptor 4 [1]) [nM]	IC50 (Ephrin type-B receptor 4 [2]) [nM]	SMILES
220		NC(=O)c1cccc(Nc2nccc(Nc3c(Cl)ccc4c3OCO4)n2)c1
794	741	CS(=O)(=O)Nc1cccc(Nc2nccc(Nc3c(Cl)ccc4c3OCO4)n2)c1
